The values below are quoted from earlier work in publication PMC5074076, “Novel minimal physiologically-based model for the prediction of passive tubular reabsorption and renal excretion clearance” (European Journal of Pharmaceutical Sciences, 2016).

The conditions of this data set: healthy subjects; plasma and urine data from same subjects; normalised for subject weight and body surface area where necessary; ref Table S2.1; cited from earlier work.

In the case of `Cc1nc2n(c(=O)c1CCN1CCC(c3noc4cc(F)ccc34)CC1)CCCC2` [Risperidone], the “Overall weighted mean CLR” value is 41.5 mL/min.
